# In patent US8173626B2, “Methods, dosing regimens and medications using anti-progestational agents for the treatment of disorders” (Danco Laboratories LLC, priority 2006, dated 2012):
# What was measured:
# uterine leiomyomata = assay: Randomized, double-blinded, placebo-controlled study of mifepristone 5 mg daily for symptomatic uterine leiomyomata (Example 11); type: in vivo, human; conditions: 6 months, P<0.001
# From the text: The Study and Results are described in […] et al., Obstetrics & Gynecology, 108(6) (2006), hereby incorporated by reference in its entirety. […] Women were excluded if they were pregnant or intended to become pregnant during the next 6 months or had major medical morbidity or severe anemia, active mental illness, elevated liver enzymes, or substance abuse. Participants agreed to use barrier contraception and not to use hormonal or surgical treatments for leiomyomata during the course of the trial. Analgesic use was permitted. Using design 42 Study Subjects were randomly assigned to take either 5 mg mifepristone daily or a placebo, with twenty-two were randomized to treatment and 20 to placebo. […] Each questionnaire was administered at baseline, 1 month, 3 months, and 6 months, except the McGill Pain Questionnaire, which was assessed monthly. Bleeding was assessed by using daily menstrual logs and pictorial bleeding charts. A monthly blood loss index was calculated from menstrual history by assigning values […] to each day of spotting, indicating light, moderate, and heavy flow, respectively, and then summing the results. […] The uterus was measured in three planes and a total volume calculated. The five largest leiomyomata were identified, a volume calculated for each of the leiomyomata, and the results summed. […]
# [1] = target: T1, progesterone receptor (PR) (Homo sapiens, UniProt P06401); conditions: cited from earlier work
# T1 sequence (P06401 1-933): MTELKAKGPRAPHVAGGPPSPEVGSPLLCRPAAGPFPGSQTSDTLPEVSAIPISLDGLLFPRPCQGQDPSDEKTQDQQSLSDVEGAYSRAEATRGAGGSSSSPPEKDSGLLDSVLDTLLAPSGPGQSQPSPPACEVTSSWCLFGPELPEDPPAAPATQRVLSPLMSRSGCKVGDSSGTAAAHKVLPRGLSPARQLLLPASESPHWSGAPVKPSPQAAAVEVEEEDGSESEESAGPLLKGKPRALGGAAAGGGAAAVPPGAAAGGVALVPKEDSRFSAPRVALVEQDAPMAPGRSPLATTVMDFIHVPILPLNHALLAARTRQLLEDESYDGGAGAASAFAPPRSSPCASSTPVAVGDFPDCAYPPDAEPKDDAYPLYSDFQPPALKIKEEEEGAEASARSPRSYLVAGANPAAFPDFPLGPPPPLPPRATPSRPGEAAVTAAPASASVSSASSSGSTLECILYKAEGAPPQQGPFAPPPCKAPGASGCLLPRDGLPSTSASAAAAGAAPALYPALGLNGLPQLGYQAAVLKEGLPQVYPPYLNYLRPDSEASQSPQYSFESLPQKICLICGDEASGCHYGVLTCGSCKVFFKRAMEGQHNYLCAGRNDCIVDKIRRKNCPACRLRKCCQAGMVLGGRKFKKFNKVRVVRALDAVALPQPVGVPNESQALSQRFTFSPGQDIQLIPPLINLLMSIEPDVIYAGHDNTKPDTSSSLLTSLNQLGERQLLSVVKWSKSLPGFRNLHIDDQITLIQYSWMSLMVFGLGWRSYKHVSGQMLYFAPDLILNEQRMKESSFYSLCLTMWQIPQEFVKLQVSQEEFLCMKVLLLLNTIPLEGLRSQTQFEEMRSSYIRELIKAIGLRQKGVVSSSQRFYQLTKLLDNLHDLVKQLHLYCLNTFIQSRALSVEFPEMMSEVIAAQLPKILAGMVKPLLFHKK
compound,measurement,setting,value
"CC#C[C@]1(O)CC[C@H]2[C@@H]3CCC4=CC(=O)CCC4=C3[C@@H](c3ccc(N(C)C)cc3)C[C@@]21C [mifepristone, 17-hydroxy-11-(4-dimethylaminophenyl)-17-(prop-1-ynyl)estra-4,9-dien-3-one]",mean blood loss index vs placebo,uterine leiomyomata,significantly lower
same,affinity for the progesterone receptor (PR),[1],high affinity
